# Molecular target: Amine oxidase [flavin-containing] B (Homo sapiens, UniProt P27338)
# Protein sequences, listed by entry. Tags and fused reporters are not part of them.
# UniProt P27338, whole entry: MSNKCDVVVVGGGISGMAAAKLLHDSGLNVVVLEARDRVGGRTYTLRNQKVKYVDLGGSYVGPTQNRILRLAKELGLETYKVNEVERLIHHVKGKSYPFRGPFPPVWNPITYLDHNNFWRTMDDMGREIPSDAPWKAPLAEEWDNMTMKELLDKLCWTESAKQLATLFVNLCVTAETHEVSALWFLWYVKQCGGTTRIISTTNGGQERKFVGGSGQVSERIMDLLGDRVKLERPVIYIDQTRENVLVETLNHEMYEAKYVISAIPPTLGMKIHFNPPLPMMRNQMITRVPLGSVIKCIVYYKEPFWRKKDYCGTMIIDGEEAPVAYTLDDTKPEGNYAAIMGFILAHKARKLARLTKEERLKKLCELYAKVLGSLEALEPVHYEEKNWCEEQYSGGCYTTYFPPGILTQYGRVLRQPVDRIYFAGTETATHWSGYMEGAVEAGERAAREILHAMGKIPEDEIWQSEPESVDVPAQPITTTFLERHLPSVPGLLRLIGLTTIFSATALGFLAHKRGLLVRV
# Experiment: Inhibition of human MAOB using p-tyramine as substrate after 15 mins by Amplex Red MAO assay
row,SMILES,IC50 [nM]
1,CC(=O)c1cccc(OCc2ccc(Cl)cc2)c1,11.7
2,CC(=O)c1ccc(OCc2cccc(Cl)c2)cc1,21.5
3,CC(=O)c1cccc(OCc2ccc(Br)cc2)c1,16.5
4,CC(=O)c1ccc(OCc2ccc(F)cc2)cc1,12.9

# Reference: ChEMBL document CHEMBL3769324, “Acetophenone derivatives: novel and potent small molecule inhibitors of monoamine oxidase B” (Medchemcomm, 2015)
